Our source for the Ka values is ChEMBL document CHEMBL4814004, “Design and synthesis of quinoline-pyrimidine inspired hybrids as potential plasmodial inhibitors” (Eur J Med Chem, 2021).

Assay [1] deals with Plasmodium falciparum.
Assay [2] concerns Plasmodium falciparum. The source holds these as a separate data set.

In the case of `COc1ccc(-c2cc(-c3ccc(OC)c(OC)c3)nc(N3CCN(c4ccnc5cc(Cl)ccc45)CC3)n2)cc1OC`, the Ka was 1.34 10^4/M.s in the assay on Plasmodium falciparum [1] and 2.68 10^6/M.s in the assay with Plasmodium falciparum [2].
With `COc1ccc(-c2cc(-c3ccc(OC)cc3)nc(N3CCN(c4ccnc5cc(Cl)ccc45)CC3)n2)cc1`, the Ka in the assay on Plasmodium falciparum [1] was 5.99 10^3/M.s; in the assay on Plasmodium falciparum [2] it was 3.3 10^6/M.s.
The matching figures for `Oc1ccc(-c2cc(-c3ccc(O)c(O)c3)nc(NCCCCNc3ccnc4cc(Cl)ccc34)n2)cc1`: 1.91 10^6/M.s and 2.79 10^5/M.s.
The matching figures for `Oc1ccc(-c2cc(-c3ccc(O)cc3)nc(NCCCCNc3ccnc4cc(Cl)ccc34)n2)cc1`: 2.7 10^7/M.s and 7.73 10^6/M.s.
